Test: in vivo
Settings: NMRI, mouse, iv, 3 mg/kg

Cc1nn(C)c(C)c1NS(=O)(=O)c1c(Cl)cc(-c2ccnc(N3CCNCC3)c2)cc1Cl
Vd: 0.4 L/kg
